From patent publication US20090028888A1, “Cancer Antigen Mage-A9 and Uses Thereof” (priority 2005, published 2009)

System: MAGE-A9 gene expression in bladder cancer cell lines
Assay: RT-PCR analysis of MAGE-A9 gene expression induction in bladder cancer cell lines
Conditions: MGH-U3, 5637 and VMCUB-3, 0.5 μM Apicidin; for MAGE-A9 expression induction, HDAC inhibitor alone: 1 μM MS-275 or 2 mM 4-PB, 48 h; for level of MAGE-A9 mRNA expression, addition to 5-AZA-DC: cells previously treated for 48 hours with 1 μM 5-AZA-DC, 1 μM MS-275 or 2 mM 4-PB for last 48 hours

SMILES | MAGE-A9 expression induction, HDAC inhibitor alone | level of MAGE-A9 mRNA expression, addition to 5-AZA-DC
O=C(O)CCCc1ccccc1 [4-PB, 4-phenylbutyrate] | did not induce | augmented considerably
Nc1ccccc1NC(=O)c1ccc(CNC(=O)OCc2cccnc2)cc1 [MS-275] | did not induce | augmented considerably
